Earlier results on 1 substance are cited in PMC12135518, “Population pharmacokinetics and dosing optimization of teicoplanin in renal transplant patients” (Antimicrobial Agents and Chemotherapy, 2025).

For this series the following is noted: triexponential elimination; cited from earlier work.

In the case of teicoplanin, the elimination half-life is 83 to 163 h.
